Measurements from patent publication US10508107B2, “Morpholine derivative” (Hoffmann-La Roche Inc., priority 2016, dated 2019).

By UniProt entry, the sequences of proteins in these tests, tags left out. Where a name states a change or a piece, a line headed by the entry shows the natural chain unless it says otherwise.
UniProt Q96RJ0: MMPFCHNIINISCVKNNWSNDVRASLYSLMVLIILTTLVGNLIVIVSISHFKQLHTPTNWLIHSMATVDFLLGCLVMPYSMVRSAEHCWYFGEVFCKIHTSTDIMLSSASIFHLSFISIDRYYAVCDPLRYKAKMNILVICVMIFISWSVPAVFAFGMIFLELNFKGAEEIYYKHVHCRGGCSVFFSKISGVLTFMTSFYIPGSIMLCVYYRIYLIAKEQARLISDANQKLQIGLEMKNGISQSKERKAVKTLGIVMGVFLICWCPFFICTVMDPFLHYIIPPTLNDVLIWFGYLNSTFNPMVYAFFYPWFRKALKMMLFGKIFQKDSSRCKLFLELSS

Molecular target: human TAAR1 (Homo sapiens (Human), UniProt Q96RJ0)
Assay: cAMP functional assay in HEK293 cells expressing human TAAR1
Format: cell-based
Conditions: read-out: hTAAR1 EC50
Experimental: For the construction of expression plasmids the coding sequences of human TAAR 1 were amplified from genomic DNA essentially as described by Lindemann et al.[14]. The Expand High Fidelity PCR System (Roche Diagnostics) was used with 1.5 mM Mg^2+ and purified PCR products were cloned into pCR2.1-TOPO cloning vector (Invitrogen) following the instructions of the manufacturer. PCR products were subcloned into the pIRESneo2 vector (BD Clontech, Palo Alto, Calif.), and expression vectors were sequence verified before introduction in cell lines.
HEK293 cells (ATCC # CRL-1573) were cultured essentially as described by Lindemann et al. (2005). For the generation of stably transfected cell lines HEK293 cells were transfected with the pIRESneo2 expression plasmids containing the TAAR coding sequences (described above) with Lipofectamine 2000 (Invitrogen) according to the instructions of the manufacturer, and 24 hrs post transfection the culture medium was supplemented with 1 mg/ml G418 (Sigma, Buchs, Switzerland). […]
cAMP measurements were performed as described previously (Revel et al., Proc. Natl. Acad. Sci. USA 2011, 108, 8485-8490). […] Finally, the plates were read with a luminometer (1420 Multilabel counter; PerkinElmer, Schwerzenbach, Switzerland), and the amount of cAMP was calculated. […]

With `CCc1[nH]nc(C(=O)Nc2ccc([C@H]3CNCCO3)cc2)c1C` [Example 1, 5-Ethyl-4-methyl-N-[4-[(2S)-morpholin-2-yl]phenyl]-1H-pyrazole-3-carboxamide] the pEC50 was 7.23.

pEC50: −log10 of the molar value.
